# ChEMBL document CHEMBL2176970 (J Med Chem, 2012)
# Sequences of proteins named here, by UniProt entry; tags and fusion partners are left off. A change or cut given only in a name is not applied to a line headed by its entry.
# UniProt Q9Y243: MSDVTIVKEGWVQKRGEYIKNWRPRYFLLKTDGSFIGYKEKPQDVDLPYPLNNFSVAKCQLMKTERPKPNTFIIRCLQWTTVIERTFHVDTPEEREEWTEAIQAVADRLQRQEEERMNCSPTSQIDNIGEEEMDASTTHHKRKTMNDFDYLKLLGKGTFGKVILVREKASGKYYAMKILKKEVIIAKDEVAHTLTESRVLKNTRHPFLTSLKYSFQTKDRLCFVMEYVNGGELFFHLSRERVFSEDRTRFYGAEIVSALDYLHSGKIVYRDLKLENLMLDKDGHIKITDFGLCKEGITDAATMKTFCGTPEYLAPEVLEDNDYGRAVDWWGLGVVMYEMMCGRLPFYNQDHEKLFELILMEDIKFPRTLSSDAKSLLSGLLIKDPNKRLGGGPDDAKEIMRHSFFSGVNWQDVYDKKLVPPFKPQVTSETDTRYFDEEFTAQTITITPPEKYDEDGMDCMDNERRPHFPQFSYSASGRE
# Target: RAC-gamma serine/threonine-protein kinase (Homo sapiens, UniProt Q9Y243)
# Assay: Inhibition of Akt3 (1 to 479) expressed in Sf9 cells using biotin-GRPRTSSFAEG as substrate after 20 mins by Alpha-screen assay
structure (smiles),measurement,value
Nc1ncccc1-c1nc2cc(-c3cccnc3)cnc2n1-c1ccc(CNC(=O)c2cccc(F)c2)cc1,IC50,400 nM
